Results as given in patent US7527952B2, “Crystals of inosine monophosphate dehydrogenase/oxidized inosine monophosphate thiomidate intermediate/mycophenolic acid (IIMPDH/XMP*/MPA)” (Vertex Pharmaceuticals Incorporated, priority 1996, dated 2009).

Protein sequences, listed by entry. Tags and fused reporters are not part of them.
UniProt P12269, whole entry: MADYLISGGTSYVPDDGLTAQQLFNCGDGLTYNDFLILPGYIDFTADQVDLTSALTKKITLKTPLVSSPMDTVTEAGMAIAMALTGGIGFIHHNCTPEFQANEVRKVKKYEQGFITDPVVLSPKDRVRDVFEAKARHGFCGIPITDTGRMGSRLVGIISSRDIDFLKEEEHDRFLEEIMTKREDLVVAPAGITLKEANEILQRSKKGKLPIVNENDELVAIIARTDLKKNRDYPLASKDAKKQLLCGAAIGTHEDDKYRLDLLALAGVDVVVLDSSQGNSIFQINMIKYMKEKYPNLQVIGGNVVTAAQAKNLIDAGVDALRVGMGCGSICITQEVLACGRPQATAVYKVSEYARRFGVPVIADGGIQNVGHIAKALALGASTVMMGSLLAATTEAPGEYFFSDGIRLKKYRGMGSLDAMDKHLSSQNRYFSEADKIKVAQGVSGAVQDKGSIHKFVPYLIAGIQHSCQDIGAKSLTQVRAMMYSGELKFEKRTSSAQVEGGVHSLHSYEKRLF

Assays:
Format in all cases: biochemical
[1] = biological target: T1, human type II IMPDH Ser 276 to Ala mutant (Homo sapiens, UniProt P12268, S276A); experiment: MPA inhibition of IMPDH mutant, Ser 276 to Ala (Ki app.); conditions: Ser 276 mutated to Ala; saturating IMP and NAD
T1 construct: The full length IMPDH cDNA carrying the confirmed mutation was then subcloned into a pSPC27 vector; made in house; host or cells: E. coli strain H712 (IMPDH-deficient), pSPC27 vector

[2] = biological target: Chinese hamster IMPDH (Cricetulus griseus, UniProt P12269); experiment: Inhibition of Chinese hamster IMPDH
[3] = biological target: T2, human type II IMPDH Thr 333 to Ile mutant (Homo sapiens, UniProt P12268, T333I); experiment: MPA inhibition of IMPDH mutant, Thr 333 to Ile (Ki app.); conditions: Thr 333 substituted with Ile; saturating IMP and NAD
T2 construct: The full length IMPDH cDNA carrying the confirmed mutation was then subcloned into a pSPC27 vector; made in house; host or cells: E. coli strain H712 (IMPDH-deficient), pSPC27 vector

[4] = biological target: T3, human type II IMPDH Gln 441 to Ala mutant (Homo sapiens, UniProt P12268, Q441A); experiment: MPA inhibition of IMPDH mutant, Gln 441 to Ala (Ki app.); conditions: Gln 441 substituted with Ala; saturating IMP and NAD
T3 construct: The full length IMPDH cDNA carrying the confirmed mutation was then subcloned into a pSPC27 vector; made in house; host or cells: E. coli strain H712 (IMPDH-deficient), pSPC27 vector

mycophenolic acid [MPA]
increase in Ki app. of MPA relative to wild type [1]: 7 fold | type of inhibition of Chinese hamster IMPDH [2]: potent, uncompetitive, inhibitor | increase of Ki app. of MPA relative to wild type [3]: 300 fold | increase of Ki app. of MPA relative to wild type [4]: 25 fold
